The results in this text go back to patent US20250352676A1, “N-Cyclopropyl-1-(4-(4-(Fluoro-18f)Phenyl)Pyrimidin-5-Yl)-N-Methylpiperidine- 4-Carboxamide and Uses in PET Imaging” (Emory University, priority 2022, published 2025).

Protein sequences, listed by entry. Tags and fused reporters are not part of them. Residues count along the entry.
UniProt I2CYF7, 29-500: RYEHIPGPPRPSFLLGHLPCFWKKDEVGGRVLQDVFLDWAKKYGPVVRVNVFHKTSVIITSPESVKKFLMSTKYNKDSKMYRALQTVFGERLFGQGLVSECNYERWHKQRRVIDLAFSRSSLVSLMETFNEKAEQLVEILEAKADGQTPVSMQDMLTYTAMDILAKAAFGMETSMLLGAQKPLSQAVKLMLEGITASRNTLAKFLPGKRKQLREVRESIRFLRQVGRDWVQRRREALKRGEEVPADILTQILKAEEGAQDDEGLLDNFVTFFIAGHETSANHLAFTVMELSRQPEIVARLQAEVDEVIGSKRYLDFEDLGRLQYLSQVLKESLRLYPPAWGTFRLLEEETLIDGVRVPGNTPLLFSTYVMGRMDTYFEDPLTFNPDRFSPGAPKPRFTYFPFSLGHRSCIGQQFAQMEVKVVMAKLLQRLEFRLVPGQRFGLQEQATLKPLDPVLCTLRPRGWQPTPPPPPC

The target in this test is CYP46A1 (Macaca mulatta, UniProt I2CYF7). Nature of the test: Target occupancy PET study in rhesus monkeys. As to conditions: rhesus monkey, iv, read-out: D50 (dose that exhibits 50% target occupancy). It counts as in vivo. Further details: from tissue; host or cells: brain of living rhesus monkeys. The procedure:
To test whether targeted visualization and quantitative assessment of drug-CYP46A1 interactions in the brain of NHPs could be obtained with this PET tracer, a dose-response experiment was performed using soticlestat as a model compound. Using a broad array of soticlestat intravenous doses, ranging from 0.04 to 0.9 μmol/kg, a consistent dose-dependent PET signal attenuation was observed, which allowed target occupancy modeling with noteworthy model accuracy across different brain regions.
Four rhesus monkeys (4.8 to 9.3 kg) were anesthetized by intramuscular injection of ketamine (10 mg/kg) and then put on the MRI scanning bed in the supine position. Whole-brain images were acquired. […] Whole-blood samples were collected from an arterial catheter to measure radioactivity in whole blood and plasma. Samples were centrifuged, and 100 μl of whole blood and plasma was measured in a gamma counter at 10, 20, 30, 40, 50, 60, 75, 90, 105, 120, 150, 180, 210, 240, 600, 900, 1200, 1800, 2700, 3920, 4500, and 5400 s after 18F-CHL-2205 injection. […]
Then, the mixture was injected into a high-performance liquid chromatography (HPLC) system equipped with a semipreparative IIPLC column and an ultraviolet detector with the wavelength set at 254 nm. […] The HPLC fractions were collected at 30-s intervals for 13 min; each fraction was counted with automatic gamma well counter. […]

Each structure is given as a SMILES string.

Consider `O=C(c1cccnc1-c1ccncc1)N1CCC(O)(Cc2ccccc2)CC1` [soticlestat], for which the ED50 is ~0.1 µmol/kg.
